# Values of other authors in patent US7622476B2, “Methods of using 1-allyl ergot alkaloid derivatives to treat migraines” (priority 2002, dated 2009).
# Protein sequences, listed by entry. Tags and fused reporters are not part of them.
# UniProt P14842, whole entry: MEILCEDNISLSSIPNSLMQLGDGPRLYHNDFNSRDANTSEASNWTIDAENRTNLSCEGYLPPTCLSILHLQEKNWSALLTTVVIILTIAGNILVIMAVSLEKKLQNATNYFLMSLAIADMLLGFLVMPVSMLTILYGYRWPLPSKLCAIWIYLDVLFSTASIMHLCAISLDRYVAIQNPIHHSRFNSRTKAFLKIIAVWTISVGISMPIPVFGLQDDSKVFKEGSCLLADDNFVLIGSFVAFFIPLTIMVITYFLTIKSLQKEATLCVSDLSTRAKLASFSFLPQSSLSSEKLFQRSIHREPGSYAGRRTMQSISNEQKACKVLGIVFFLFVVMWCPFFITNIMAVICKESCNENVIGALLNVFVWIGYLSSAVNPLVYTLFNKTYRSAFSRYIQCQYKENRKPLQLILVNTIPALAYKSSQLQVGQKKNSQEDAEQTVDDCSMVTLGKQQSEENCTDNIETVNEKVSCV
# Target: T1, 5-HT2A receptors (Rattus norvegicus, UniProt P14842)
# T1 construct: characterizing 5-HT2A receptors in rat's caudal arteries; from tissue; host or cells: rat anterior caudal artery segments, endothelium stripped (male Wistar rats)
# Details: reference compounds marked *; values from H. Pertz (1996) Planta Med. 62, pp. 387-392; cited from earlier work
smiles,measurement,value
C[C@@H]1C[C@@H]2c3cccc4[nH]cc(c34)C[C@H]2N(C)C1 [Festuclavine],5-HT2A pA2 value,6.63
